# Laboratory results published in PMC8360000 (Clinical Pharmacology and Therapeutics, 2021).
# Tested on: P‐gp
# Assay: IVIVE of intrinsic CL and Kp,uu,brain using REF and BMEC protein content
# Set-up: species or system human
structure (smiles),measurement,setting,value
"CCN(CC)CCNC(=O)c1cc(Cl)c(N)cc1OC [Metoclopramide, metoclopramide]",IVIV Extrapolated CLi,"mean ± standard deviation, scaled with BMEC protein content",279 ± 58 mL/min
same,P/O (predicted/observed value),method 2,1.08
